# Intrinsic clearance values, as collected for the OPERA models

Source: data files of OPERA 2.9 (Mansouri et al.), github.com/kmansouri/OPERA.

Clint is human hepatic intrinsic clearance in µL/min per million cells; 0 means that no clearance was seen. Cells with "n/a" have no entry in this list.

structure (SMILES),name,hepatic Clint (µL/min/10^6 cells)
CNC(=O)Oc1cccc2c1OC(C)(C)O2,Bendiocarb,21.66
Cc1cc(N=Nc2ccccc2C)ccc1N,2-amino-5-azotoluene,6.89
CC1=NNC(=O)N(/N=C/c2cccnc2)C1,Pymetrozine,8.61
CC(C)N(C(=O)SCC(Cl)=C(Cl)Cl)C(C)C,Tri-allate,2.89
CNc1cnn(-c2cccc(C(F)(F)F)c2)c(=O)c1Cl,Norflurazon,11.09
CC(Oc1cccc(Cl)c1)C(=O)O (stereo not given),Cloprop,0
Cc1cccc(C)c1N,"2,6-dimethylaniline",8.96
ClC=C(Cl)Cl,Trichloroethylene,2.174
COC(=O)c1c(C(F)F)nc(C(F)(F)F)c(C2=NCCS2)c1CC(C)C,Thiazopyr,41.5
CN(C)C(=S)SSC(=S)N(C)C,Thiram,816
ClC(Cl)=C(c1ccc(Cl)cc1)c1ccc(Cl)cc1,"P,p'-dde",199
CN1C(=O)C(C)(C2=CCCCC2)C(=O)N=C1O (stereo not given),n/a,0
CNC(=O)ON=C(SC)C(=O)N(C)C,Oxamyl,0
CCOC(=O)CC(SP(=S)(OC)OC)C(=O)OCC (stereo not given),Malathion,368
CO/C=C(/C(=O)OC)c1ccccc1COc1cccc(C(F)(F)F)n1,Picoxystrobin,57.1
Cc1ccc([N+](=O)[O-])cc1N,2-methyl-5-nitroaniline,22.4
Cc1cc(C2CC2)nc(Nc2ccccc2)n1,Cyprodinil,37.77

Extract of 3 entries:

{"smiles": "Cc1cc(N=Nc2ccccc2C)ccc1N", "name": "2-amino-5-azotoluene", "hepatic Clint (µL/min/10^6 cells)": "6.89"}
{"smiles": "Cc1ccc([N+](=O)[O-])cc1N", "name": "2-methyl-5-nitroaniline", "hepatic Clint (µL/min/10^6 cells)": "22.4"}
{"smiles": "CC(Oc1cccc(Cl)c1)C(=O)O", "stereo": "stereo not given", "name": "Cloprop", "hepatic Clint (µL/min/10^6 cells)": "0"}

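The numbers are reported measurements, compiled and curated for the OPERA QSAR suite. The files give a single number for a compound and property, which may rest on several reports. Method and conditions are not stated for these values. Where a salt, mixture or single isomer is drawn, the source does not say that exactly this form was tested. Unmarked limits or estimates from the upstream databases cannot be ruled out.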